From doi:10.1101/2025.03.03.641346

Target: LH1 αβ-heterodimer of Dinoroseobacter shibae (Dinoroseobacter shibae DFL-12) (UniProt A8LQ15)
Assay: cryo-EM structure

LH1 αβ-heterodimer of Dinoroseobacter shibae (from UniProt A8LQ15 1-53; A8LQ14 1-49) (complex)
stoichiometry N: 17
